The record followed here is BindingDB's records for doi:10.1016/j.bmcl.2014.05.036 (Astrazeneca, 2014).

The experiment in a line: Inhibition of human BCL-2 overexpressed in mouse FDC-P1 cells assessed as cell viability after 24 hrs by Cell Titer Glo assay.

In the case of `CC1(C)CCC(c2ccc(Cl)cc2)=C(CN2CCN(c3ccc(C(=O)NS(=O)(=O)c4ccc(N[C@H](CCN5CCOCC5)CSc5ccccc5)c(S(=O)(=O)C(F)(F)F)c4)cc3)CC2)C1` [ABT-263], the IC50 is less than 15 nM.

As usually defined, the IC50 is the midpoint of a concentration-inhibition curve.
